# Experimental data reported in PubChem BioAssay AID2094 (Broad Institute, 2009).
# The list shows a part of the results, in another mix than the full data. The source made the active and inactive calls. No stated cut-off is given here; in the data, active means activity change below about -75% (passing the limit was not always enough); inconclusive means no clear call, values can overlap the other calls.
# Assay: modulation of AI-2 quorum-sensing luminescence – JMH597 strain, luminescence/OD600 ratio, primary screen (AID 2094);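 further: luminescence divided by OD600 gain over 9 h not by final OD600 alone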
# Details: Vibrio harveyi JMH597 AI-2 luminescence/OD600 ratio, 9 h; at 7.5 µM; stronger effect = lower value; 0 = neutral-control median; strain lacks LuxN and CqsS sensors
row,Compound,activity change
1,Cc1ccc(C(=O)OC2CN3CCC2CC3)cc1 (stereo not drawn),inactive: 1.44%
2,O=C(/C=C/c1ccccc1)OC1CN2CCC1CC2 (stereo not drawn),inactive: 5.93%
3,CN(C)C1(CNC(=O)c2ccc(S(C)(=O)=O)cc2)CCCCC1,inactive: 32.7%
4,COc1ccccc1CNC(=O)COC(=O)C(O)(c1ccccc1)c1ccccc1,inactive: 21.2%
5,O=[As](O)(c1ccccc1Br)c1ccccc1Br,inactive: 23.8%
6,CC1(CBr)Cn2c(nc3ccccc3c2=O)S1 (stereo not drawn),inactive: 10.7%
7,CC(C)/C=N\N=C(\N)N[N+](=O)[O-],inactive: 35.2%
8,CN(C(=O)Cc1ccc(Cl)c(Cl)c1)[C@@H]1CCCC[C@H]1N1CCCC1,inactive: 7.31%
9,CCOP(=O)(Nc1ccc(C)cn1)OCC,inactive: -7.11%
10,CN(CCCl)Cc1cc(Cl)c(NC2=NCCN2)c(Cl)c1,inactive: 20%
11,O=P1(Nc2ccccn2)COc2ccccc2OC1,inactive: 25.9%
12,CCC1=CC2Cc3nc4ccc(Cl)cc4c(N)c3C(C1)C2 (stereo not drawn),inactive: 6.22%
13,CCOP(=O)(NC(=NC(C)c1ccccc1)NC(C)c1ccccc1)OCC (stereo not drawn),inactive: -4.67%
14,Clc1n[nH]nc1-c1nn[nH][15n]1,inactive: 12.4%
15,CC(C)(C)C(=O)NC(Sc1ncccn1)C(Cl)(Cl)Cl (stereo not drawn),inactive: 10.6%
16,CCOC(=O)c1ccc(NC(=O)C(C)(CCl)SC)cc1 (stereo not drawn),inactive: 9.74%
17,O=C(OC1CN2CCC1CC2)c1cccc([N+](=O)[O-])c1 (stereo not drawn),inactive: 31%
18,CCC(C)N(CC(C)C)C(=S)SC(NC(C)=O)C(Cl)(Cl)Cl (stereo not drawn),inactive: 14.9%
19,COP1(=S)c2c(C)nn(CCC#N)c2N=C(c2ccc(F)cc2)N1C (stereo not drawn),inactive: -1.18%
20,O=C(COc1ccccc1)OC1CN2CCC1CC2 (stereo not drawn),inactive: 12.3%
21,O=C(Nc1ccncc1[N+](=O)[O-])c1ccc([N+](=O)[O-])cc1[N+](=O)[O-],inactive: 20.3%
22,CCOC(=O)Nc1cccc([As](=O)(O)O)c1,inactive: 20.2%

row,Compound,activity change
1,O=[N+]([O-])c1ccc(Nc2ccc(Oc3ccc([N+](=O)[O-])cc3[N+](=O)[O-])cc2)c([N+](=O)[O-])c1,inactive: 21.8%
2,O=P(Nc1ccccn1)(c1cccc2ccccc12)c1cccc2ccccc12,inactive: 12.2%
3,Cc1cc(SC(NC=O)C(Cl)(Cl)Cl)ncn1 (stereo not drawn),inactive: 14.5%
4,CCOC(=O)Nc1ccc([As](=O)(O)O)c(O)c1,inactive: 33.6%
5,CCCCOc1ccc(C(=O)NCC2(N3CCCCC3)CCCCC2)cc1OC,inactive: 2.84%
6,Cc1cc(SC(NC(=O)c2ccccc2)C(Cl)(Cl)Cl)nc(C(C)C)n1 (stereo not drawn),inactive: 8.49%
7,CC(C)c1ccc(OP(=O)(Nc2ccccn2)Oc2ccccc2F)cc1 (stereo not drawn),inactive: 0.0304%
8,ClCCSc1nnc(-c2cccnc2)o1,inactive: 11.2%
9,CC(C)NC(=O)NP(=O)(Oc1ccccc1)Oc1ccccc1,inactive: 8.64%
10,CCN(CC)C(=S)SC(NC=O)C(Cl)(Cl)Cl (stereo not drawn),inactive: 6.26%
11,O=[N+]([O-])c1cc([N+](=O)[O-])c(-c2ccn[nH]2)s1,active: -188%
12,O=[As](O)(c1ccc(O)cc1)c1ccccc1O,inactive: 18.4%
13,C[As](=O)(O)c1cccc(C(=O)O)c1,inactive: -0.292%
14,Cc1ccc2nc3c(c(C)c2c1)CC(C(Cl)Cl)S3 (stereo not drawn),inactive: 33.3%
15,Cc1ccc(OP(=O)(Nc2ccc([N+](=O)[O-])cn2)Oc2ccc(C)cc2)cc1,inactive: 3.48%
16,COc1ccc(N/C(=N/P(=O)(N2CCOCC2)N2CCOCC2)N2CCOCC2)cc1,inactive: 2.34%
17,O=C(OC1CN2CCC1CC2)C12CC3CC(CC(C3)C1)C2 (stereo not drawn),inactive: -3.53%
18,Cc1cc(=O)[nH]c(N[N+](=O)[O-])n1,inactive: 33.3%
19,Cc1c2c(nc3ccccc13)SC(C(Cl)Cl)C2 (stereo not drawn),inactive: 3.78%
20,COc1ccc2nc(NP(=O)(c3ccccc3)c3ccccc3)sc2c1,inactive: 11.4%
21,COc1cc(I)ccc1[As](=O)(O)O,inactive: 16.7%
